How the values were obtained:
LIMK2KD = biological target: T1, LIMK2KD (Homo sapiens, UniProt P53671); experiment: Differential (dynamic) scanning fluorimetry (DSF) assay, LIMK2KD; type: binding; conditions: read-out: TM Shift LIMK2 (K)
T1 construct: The cDNA coding for LIMK2 residues 330 to 632 was PCR amplified; His6 (N, cleaved yes); made in house; host or cells: baculovirus; Sf9 for virus, TriEx insect cells for expression

Chains of the proteins cited; added tags and fusions are not shown. Residues count along the entry.
UniProt P53671, 330-632: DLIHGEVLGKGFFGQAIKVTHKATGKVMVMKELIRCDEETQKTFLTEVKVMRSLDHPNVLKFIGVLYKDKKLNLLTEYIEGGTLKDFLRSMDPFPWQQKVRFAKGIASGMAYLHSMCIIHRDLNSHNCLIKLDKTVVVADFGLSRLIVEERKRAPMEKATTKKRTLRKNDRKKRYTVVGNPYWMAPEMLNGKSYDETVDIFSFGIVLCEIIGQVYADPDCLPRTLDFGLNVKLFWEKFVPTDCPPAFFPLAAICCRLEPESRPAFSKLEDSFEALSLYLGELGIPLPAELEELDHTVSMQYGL
UniProt P53667, 330-637: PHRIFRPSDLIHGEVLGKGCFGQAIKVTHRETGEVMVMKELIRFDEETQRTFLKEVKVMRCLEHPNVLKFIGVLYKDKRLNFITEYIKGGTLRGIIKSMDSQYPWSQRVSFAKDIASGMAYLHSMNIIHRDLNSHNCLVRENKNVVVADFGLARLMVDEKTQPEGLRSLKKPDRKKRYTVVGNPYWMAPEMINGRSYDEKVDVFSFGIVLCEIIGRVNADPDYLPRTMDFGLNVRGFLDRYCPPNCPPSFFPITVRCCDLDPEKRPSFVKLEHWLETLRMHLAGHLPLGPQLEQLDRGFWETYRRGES

LIMK1KD = LIMK1KD (Homo sapiens, UniProt P53667); experiment: Differential (dynamic) scanning fluorimetry (DSF) assay, LIMK1KD; conditions: read-out: TM Shift LIMK1 (K)

Compound: CN1CCC(COc2cnc(-c3cccc(Cn4nc(-c5cccc(C#N)c5)ccc4=O)c3)nc2)CC1
- ΔTm at 10 µM (LIMK2KD): 0.3 °C
- ΔTm at 10 µM (LIMK1KD): 0.3 °C
